This experiment has as its target Epidermal growth factor receptor (Homo sapiens, UniProt P00533).

Amino acid sequences for entries named in this document (tags omitted).
UniProt P00533, whole entry: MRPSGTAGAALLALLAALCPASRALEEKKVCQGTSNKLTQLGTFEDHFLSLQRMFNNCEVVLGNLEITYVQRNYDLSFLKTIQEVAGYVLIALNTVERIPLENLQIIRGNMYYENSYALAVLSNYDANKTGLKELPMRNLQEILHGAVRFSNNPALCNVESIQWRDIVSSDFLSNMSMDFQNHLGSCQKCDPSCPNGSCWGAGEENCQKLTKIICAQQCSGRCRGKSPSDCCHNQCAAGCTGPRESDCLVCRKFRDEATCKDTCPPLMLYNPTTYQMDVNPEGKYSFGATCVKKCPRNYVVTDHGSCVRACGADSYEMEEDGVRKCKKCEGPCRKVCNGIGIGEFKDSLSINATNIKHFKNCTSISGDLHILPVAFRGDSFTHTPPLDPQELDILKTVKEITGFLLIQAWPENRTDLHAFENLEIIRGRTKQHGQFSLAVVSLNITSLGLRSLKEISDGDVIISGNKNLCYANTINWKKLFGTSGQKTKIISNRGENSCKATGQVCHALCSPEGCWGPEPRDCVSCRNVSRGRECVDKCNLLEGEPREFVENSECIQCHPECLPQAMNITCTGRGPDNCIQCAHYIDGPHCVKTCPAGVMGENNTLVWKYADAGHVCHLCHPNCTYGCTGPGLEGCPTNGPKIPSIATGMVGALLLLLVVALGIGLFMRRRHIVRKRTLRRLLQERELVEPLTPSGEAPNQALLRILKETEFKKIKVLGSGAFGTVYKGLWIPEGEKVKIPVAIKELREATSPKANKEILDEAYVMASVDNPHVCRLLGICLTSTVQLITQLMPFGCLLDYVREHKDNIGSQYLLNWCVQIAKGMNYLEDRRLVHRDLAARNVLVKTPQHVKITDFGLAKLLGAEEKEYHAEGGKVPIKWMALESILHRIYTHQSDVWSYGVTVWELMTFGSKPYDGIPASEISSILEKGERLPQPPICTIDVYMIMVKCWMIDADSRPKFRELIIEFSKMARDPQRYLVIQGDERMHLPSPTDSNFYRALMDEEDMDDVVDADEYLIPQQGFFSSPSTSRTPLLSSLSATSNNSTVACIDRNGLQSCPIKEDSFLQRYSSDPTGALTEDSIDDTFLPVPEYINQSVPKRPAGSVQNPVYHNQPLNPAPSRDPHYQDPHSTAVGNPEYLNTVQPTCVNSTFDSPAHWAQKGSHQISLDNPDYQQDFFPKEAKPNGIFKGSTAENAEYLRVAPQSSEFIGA

By IC50 is commonly meant the point on the concentration scale where inhibition reaches its midpoint. Read a low IC50 as inhibition by little substance.

For `COc1cc2ncnc(Nc3cccc(Cl)c3)c2cc1OC` [TYRPHOSTIN AG-1478], the IC50 is 0.316 nM.

For the origin of these results see ChEMBL document CHEMBL1143196, “Discovery of kinase inhibitors by high-throughput docking and scoring based on a transferable linear interaction energy model” (J Med Chem, 2008).
